Kd data for one molecule are collected here from ChEMBL document CHEMBL1132759, “The flavanolignan silybin and its hemisynthetic derivatives, a novel series of potential modulators of P-glycoprotein” (Bioorg Med Chem Lett, 2000).

Protein sequences, listed by entry. Tags and fused reporters are not part of them.
UniProt P21447, whole entry: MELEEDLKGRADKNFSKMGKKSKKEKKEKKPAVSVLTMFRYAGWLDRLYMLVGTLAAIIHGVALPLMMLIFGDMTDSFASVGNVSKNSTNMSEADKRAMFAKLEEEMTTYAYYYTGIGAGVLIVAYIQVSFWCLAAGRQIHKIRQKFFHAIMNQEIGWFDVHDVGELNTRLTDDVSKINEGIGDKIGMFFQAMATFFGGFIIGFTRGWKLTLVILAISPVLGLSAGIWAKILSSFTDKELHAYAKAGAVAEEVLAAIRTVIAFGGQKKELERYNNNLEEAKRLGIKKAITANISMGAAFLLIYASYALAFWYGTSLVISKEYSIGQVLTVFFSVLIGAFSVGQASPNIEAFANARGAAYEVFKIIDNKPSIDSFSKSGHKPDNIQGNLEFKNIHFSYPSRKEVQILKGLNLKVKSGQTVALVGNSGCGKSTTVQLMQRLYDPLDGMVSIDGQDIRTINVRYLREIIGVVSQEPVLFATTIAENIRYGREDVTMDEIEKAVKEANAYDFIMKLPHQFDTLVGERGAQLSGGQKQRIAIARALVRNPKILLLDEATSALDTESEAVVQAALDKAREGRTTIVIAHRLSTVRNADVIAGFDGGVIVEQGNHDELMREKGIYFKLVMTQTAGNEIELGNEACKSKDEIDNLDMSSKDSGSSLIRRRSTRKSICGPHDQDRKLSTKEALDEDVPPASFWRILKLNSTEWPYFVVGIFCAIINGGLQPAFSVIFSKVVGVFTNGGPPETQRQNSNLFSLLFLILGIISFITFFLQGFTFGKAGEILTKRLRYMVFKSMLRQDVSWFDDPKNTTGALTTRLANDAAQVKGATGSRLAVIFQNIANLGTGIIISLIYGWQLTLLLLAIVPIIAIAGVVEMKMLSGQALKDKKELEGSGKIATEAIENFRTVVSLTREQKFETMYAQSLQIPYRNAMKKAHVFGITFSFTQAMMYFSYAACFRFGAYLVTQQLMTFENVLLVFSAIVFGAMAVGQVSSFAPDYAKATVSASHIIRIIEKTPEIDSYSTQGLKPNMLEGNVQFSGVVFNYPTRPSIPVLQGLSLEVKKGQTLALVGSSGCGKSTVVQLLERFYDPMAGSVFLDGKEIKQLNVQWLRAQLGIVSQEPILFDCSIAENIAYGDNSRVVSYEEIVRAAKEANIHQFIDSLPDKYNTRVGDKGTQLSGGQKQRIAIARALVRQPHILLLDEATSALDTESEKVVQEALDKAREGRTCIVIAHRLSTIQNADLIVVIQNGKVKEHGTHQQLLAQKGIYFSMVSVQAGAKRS

The test concerns the target ATP-dependent translocase ABCB1 (Mus musculus, UniProt P21447). Nature of the test: Compound was tested for the binding affinity towards recombinant NBD2 C-terminal cytosolic nucleotide-binding domain of mouse P-Glycoprotein.

Regarding `COc1cc(C2Oc3cc(-c4oc5cc(O)cc(O)c5c(=O)c4O)ccc3OC2CO)ccc1O` (stereo unspecified) [DEHYDROSILYLBIN], the dissociation constant Kd amounted to 2200 nM.
